The values below are quoted from earlier work in patent publication US20060014698A1, “Nebulized pharmaceutical compositions for the treatment of bronchial disorders” (priority 2004, published 2006).

Broadly, the Ki is a measure of affinity in units of concentration, obtained from inhibition or displacement.

For this data set, the target named is thrombin (Homo sapiens, UniProt P00734). As to conditions: direct thrombin inhibitor; stated as a known property, no method given; read-out: inhibitory constant (Ki).

Turning to `CC1CNc2c(cccc2S(=O)(=O)N[C@@H](CCCNC(=N)N)C(=O)N2CC[C@@H](C)C[C@@H]2C(=O)O)C1` (stereo partly shown) [Argartroban, 1-[5-[(aminoiminomethyl)amino]-1-oxo-2-[[(1,2,3,4-tetrahydro-3-methyl-8-quinolinyl)sulfoyl]amino]pentyl]-4-methyl-2-piperidinecarboxylic acid monohydrate], the Ki is approximately 40 nM.
